According to article PMC8102066 (eLife, 2021):
Several values for one entry are separate records, joined by “and”; a condition that tells them apart may be missing. Equal values may be shown once.

Amino acid sequences for entries named in this document (tags omitted). Chains listed by the source or under a name are the forms on record and can include a tag or linker. Residues count along the entry.
UniProt P31421, with tags, fused parts or gaps with the stated changes: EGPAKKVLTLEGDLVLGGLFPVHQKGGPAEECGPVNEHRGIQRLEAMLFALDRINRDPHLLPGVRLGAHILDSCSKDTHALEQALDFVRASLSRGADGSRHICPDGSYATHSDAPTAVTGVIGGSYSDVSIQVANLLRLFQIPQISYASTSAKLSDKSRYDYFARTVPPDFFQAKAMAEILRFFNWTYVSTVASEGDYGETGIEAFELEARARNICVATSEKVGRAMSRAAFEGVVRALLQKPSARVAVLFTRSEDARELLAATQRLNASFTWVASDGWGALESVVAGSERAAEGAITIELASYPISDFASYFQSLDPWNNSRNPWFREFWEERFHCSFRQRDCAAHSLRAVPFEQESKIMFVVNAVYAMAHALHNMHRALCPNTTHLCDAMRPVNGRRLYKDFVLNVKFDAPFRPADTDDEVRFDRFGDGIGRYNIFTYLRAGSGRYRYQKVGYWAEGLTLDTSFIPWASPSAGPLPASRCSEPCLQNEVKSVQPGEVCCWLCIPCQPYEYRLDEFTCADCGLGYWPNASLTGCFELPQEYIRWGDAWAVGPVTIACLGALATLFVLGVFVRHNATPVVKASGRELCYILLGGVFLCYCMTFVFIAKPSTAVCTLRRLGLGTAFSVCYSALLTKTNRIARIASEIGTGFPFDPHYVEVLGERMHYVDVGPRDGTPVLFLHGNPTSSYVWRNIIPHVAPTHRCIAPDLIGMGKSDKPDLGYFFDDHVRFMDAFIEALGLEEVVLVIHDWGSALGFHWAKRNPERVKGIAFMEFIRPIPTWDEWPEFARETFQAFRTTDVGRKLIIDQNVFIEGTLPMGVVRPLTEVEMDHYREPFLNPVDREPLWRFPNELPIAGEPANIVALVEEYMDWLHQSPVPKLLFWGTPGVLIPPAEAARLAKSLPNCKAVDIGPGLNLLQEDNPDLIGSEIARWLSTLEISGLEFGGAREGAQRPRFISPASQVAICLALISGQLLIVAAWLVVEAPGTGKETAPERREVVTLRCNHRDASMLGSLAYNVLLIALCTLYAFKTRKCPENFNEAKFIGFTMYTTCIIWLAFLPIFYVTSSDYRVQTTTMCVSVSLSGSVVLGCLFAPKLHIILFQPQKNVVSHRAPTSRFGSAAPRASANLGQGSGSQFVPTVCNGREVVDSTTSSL
UniProt P31421, 19-872: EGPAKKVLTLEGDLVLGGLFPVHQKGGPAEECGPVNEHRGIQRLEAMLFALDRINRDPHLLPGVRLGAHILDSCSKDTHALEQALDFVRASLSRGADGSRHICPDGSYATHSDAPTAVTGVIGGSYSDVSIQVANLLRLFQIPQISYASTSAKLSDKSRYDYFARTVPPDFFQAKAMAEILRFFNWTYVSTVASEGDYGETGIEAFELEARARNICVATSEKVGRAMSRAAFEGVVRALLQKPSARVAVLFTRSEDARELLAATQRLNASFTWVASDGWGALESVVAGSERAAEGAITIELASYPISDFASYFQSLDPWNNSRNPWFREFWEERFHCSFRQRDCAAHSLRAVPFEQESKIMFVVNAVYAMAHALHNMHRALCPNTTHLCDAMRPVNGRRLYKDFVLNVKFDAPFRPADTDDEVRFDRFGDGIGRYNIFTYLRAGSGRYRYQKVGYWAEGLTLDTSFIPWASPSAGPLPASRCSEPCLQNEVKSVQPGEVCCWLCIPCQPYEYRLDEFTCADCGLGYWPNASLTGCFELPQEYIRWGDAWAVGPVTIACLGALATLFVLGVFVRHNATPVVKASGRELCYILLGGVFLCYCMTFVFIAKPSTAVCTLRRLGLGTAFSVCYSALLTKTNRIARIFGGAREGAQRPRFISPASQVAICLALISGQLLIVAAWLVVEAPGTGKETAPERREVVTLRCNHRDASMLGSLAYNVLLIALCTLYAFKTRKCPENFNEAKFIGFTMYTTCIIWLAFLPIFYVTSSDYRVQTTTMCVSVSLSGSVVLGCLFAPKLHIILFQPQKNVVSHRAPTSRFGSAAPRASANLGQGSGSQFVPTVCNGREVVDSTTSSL

How the values were obtained:
mGluR2 [1] = target: mGluR2 (Rattus norvegicus, UniProt P31421, INS660ASEIGTGFPFDPHYVEVLGERMHYVDVGPRDGTPVLFLHGNPTSSYVWRNIIPHVAPTHRCIAPDLIGMGKSDKPDLGYFFDDHVRFMDAFIEALGLEEVVLVIHDWGSALGFHWAKRNPERVKGIAFMEFIRPIPTWDEWPEFARETFQAFRTTDVGRKLIIDQNVFIEGTLPMGVVRPLTEVEMDHYREPFLNPVDREPLWRFPNELPIAGEPANIVALVEEYMDWLHQSPVPKLLFWGTPGVLIPPAEAARLAKSLPNCKAVDIGPGLNLLQEDNPDLIGSEIARWLSTLEISGLE); experiment: Inter-TMD FRET sensor (HaloTag in ICL2), live cells; details: Experiment: FRET
mGluR2 [2] = target: mGluR2 (Rattus norvegicus, UniProt P31421); experiment: Calcium imaging (G protein chimera, GCaMP6f) in HEK 293 T cells; details: Experiment: Function

LY 487379
% Response (mGluR2 [1]): 32.9% and 25.6% and 42.1%
% Response (mGluR2 [2]): 76.3% and 82.3% and 73.0%
